Values quoted from earlier work, collected in patent US12343380B2, “Expansion of TILs utilizing AKT pathways inhibitors” (Iovance Biotherapeutics, Inc., priority 2018, dated 2025).

Conditions: 1 mg vial, CellGenix lot 10200121 COA

rhIL-2: purified, lyophilized recombinant human interleukin-2; CellGenix lot 10200121
specific activity: 25×10^6 IU/mg
